# High-throughput results deposited in PubChem BioAssay by Broad Institute.
# SIRT5 inh = inhibitors of human sirtuin-5 desuccinylase; Q9NXA8; Purified SirT5, succinyl-peptide AMC, trypsin-coupled fluorescence; inhibition, % at 15 µM; 330,000 compounds, 1.1% hits; AID 652115; in the data active means inhibition above about 15%
# Yeast UUG start = modulators of yeast start codon fidelity, primary screen, whole organism, S. cerevisiae, single point, plate reader | AID 602363, 2012 | S. cerevisiae UUG-firefly luciferase reporter, luminescence/redox ratio | activity score, % at 18.7 µM | hit rate 0.13% among 350,000;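 active = replicate mean at a twofold rise or more, about +100% in these data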;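 also: firefly luciferase made from a UUG start codon reports start codon fidelity; reporter light over untreated wells divided by growth signal over untreated wells; some hits fall short of that in this replicate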
# RAD52 anneal inh = RAD52 (human) annealing inhibition; AID 651710; 360,000 compounds, 0.46% hits; recombinant RAD52 DNA annealing, FRET fluorescence; inhibition, % at 18.7 µM;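 active means every replicate showing at least 50% inhibition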
# E-selectin induc = E-selectin induction on HUVECs. P16581. HUVEC E-selectin immunofluorescence imaging; normalized: neutral wells 0, TNF-alpha wells 100. activation, % at 7.58 µM. 260,000 compounds, 0.37% hits. AID 686992;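 active means mean E-selectin-positive cell signal at least 10% of the positive control, reached in at least 60% of replicates, without over 20% cell loss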
#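 Assay system: HUVEC, human umbilical vein endothelial cells / Amount: 3,000 HUVEC/well / Controls: TNF-alpha positive control, DMSO neutral control / Compound dosing: single concentration / Medium: EGM-2 over gelatin coat / Evaluation: percent E-selectin-positive cells / Signal: immunofluorescence imaging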
# RAD54 inh = RAD54 (human) branch migration inhibition; RAD54 Holliday junction branch migration, FAM/BHQ fluorescence; inhibition, % at 10.4 µM; 360,000 compounds, 0.14% hits;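 active means mean normalized replicate activity at least 40 and at least half of replicates scoring 40 or more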;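 further: inhibitors cause a drop in the FAM fluorescence signal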
# AF4-AF9 inh = MLL-AF4/AF9 protein interaction inhibition | inhibition, % at 10 µM | 350,000 compounds, 0.47% hits | AlphaScreen, biotin-AF4 peptide binding to FLAG-AF9 | AID 651704;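 active means every replicate reaching a set inhibition limit, whatever the replicate mean, cut at about 25% in these data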
# Hits are given with their value; i = inactive; nt = not tested or not shown; ! = not confirmed by another sample. Sampled rows, rich in hits. Any-hit rate of the full collection: about 1.8%.
SMILES,SIRT5 inh,Yeast UUG start,RAD52 anneal inh,E-selectin induc,RAD54 inh,AF4-AF9 inh
Cn1c(SCc2ccc(C#N)cc2)nnc1-c1ccccc1,21.2,i,i,nt,i,nt
C[C@H]1CN([C@@H](C)CO)C(=O)c2cc(C#CC3CC3)cnc2O[C@H]1CN(C)C(=O)CC1CC1,i,i,i,i,i,i
COCCNC(=O)/C(C#N)=C/c1cc(C)n(-c2ccc(C)cc2)c1C,i,nt,i,nt,nt,i
COCCNC(=O)/C(C#N)=C/c1cc(C)n(C2CCCCC2)c1C,15.8,nt,i,nt,nt,i
COc1cc(NC(=O)Cc2ccc([N+](=O)[O-])cc2)c(C(=O)O)cc1OC,19.5,nt,i,i,nt,i
CC(C)CCN1C(=O)c2ccccc2C1c1nnnn1-c1ccc2c(c1)OCCO2 (stereo unspecified),24.7,nt,i,i,nt,i
O=C(C[C@@H]1CC[C@@H](NC(=O)CN2CCOCC2)[C@@H](CO)O1)NC1CCCCC1,i,i,i,i,i,i
CCNC(=O)COC(=O)c1cc(=O)[nH]c2ccccc12,nt,i,nt,nt,i,nt
Cc1cccc(C)c1NC(=O)COC(=O)c1cc(=O)[nH]c2ccccc12,16.7,i,i,i,i,i
CCN1/C(=C/c2cccc[n+]2C)Sc2ccc(OC)cc21,i,i,i,i,i,i
COc1ccc2c(c1)N(C)/C(=C/c1cccc[n+]1C)S2,i,i,i,i,51.1,i
CN1/C(=C/c2cccc[n+]2C)Sc2ccccc21,i,i,i,i,61.8,i
COc1ccc(OCC(O)CNC(=O)c2ccccc2)cc1 (stereo unspecified),nt,nt,i,76.8,nt,i
COc1ccc(OCC(O)CNC(=O)c2ccc(C)cc2)cc1 (stereo unspecified),nt,nt,i,nt,nt,i
C[C@H](CO)N1C[C@H](C)[C@@H](CN(C)Cc2ccc(C(=O)O)cc2)Oc2ccc(NC(=O)Cc3cn(C)c4ccccc34)cc2CC1=O,i,nt,i,i,nt,i
Oc1ccc(-c2nccc(-c3ccc(Cl)cc3Cl)n2)cc1,18.1,nt,i,nt,nt,i
O=C(NCc1ccncc1)c1nc(-c2ccc(C(F)(F)F)cc2)no1,18.7,nt,i,nt,nt,i
CCOC(=O)C1(CCCc2ccccc2)CCN(C(=O)CSC)CC1,i,i,i,i,i,i
CCOC(=O)C1(CCCc2ccccc2)CCN(C2CCN(C(C)=O)CC2)CC1,17.6,i,i,i,i,i
CCC(CC)NCCOC(=O)c1ccc([N+](=O)[O-])cc1,i,i,i,nt,i,26.1
CCOC(=O)c1cnc2c(C)cc(Cl)cc2c1NCCCN1CCOCC1,i,i,i,nt,57.0,i
Nc1cc(S(=O)(=O)c2ccc(O)c(N)c2)ccc1O,16.1,nt,i,i,nt,i
Nc1ccc(S(=O)(=O)c2ccc(N)c(N)c2)cc1,i,nt,i,nt,nt,i
C[C@@H]1CN([C@@H](C)CO)C(=O)c2cc(NC(=O)CCN3CCOCC3)ccc2O[C@H]1CN(C)Cc1ccncc1,i,nt,i,31.5,i,i
C[C@H](CO)N1C[C@H](C)[C@@H](CN(C)S(=O)(=O)c2ccc(F)cc2)Oc2ccc(NC(=O)CCN3CCOCC3)cc2C1=O,15.1!,i,i,i,i,i
SMILES,SIRT5 inh,Yeast UUG start,RAD52 anneal inh,E-selectin induc,RAD54 inh,AF4-AF9 inh
C[C@@H]1CN([C@H](C)CO)C(=O)c2cc(NS(=O)(=O)c3cn(C)cn3)ccc2O[C@@H]1CN(C)Cc1ccncc1,i,i,i,i,i,i
CC(C)NC(=O)N(C)C[C@H]1Oc2ccc(NC(=O)CCN3CCOCC3)cc2C(=O)N([C@@H](C)CO)C[C@H]1C,i,i,i,46.3,i,i
C[C@@H]1CN([C@H](C)CO)C(=O)c2cc(NS(=O)(=O)c3cn(C)cn3)ccc2O[C@H]1CN(C)Cc1ccncc1,i,i,i,92.4,i,i
C[C@@H]1CN([C@@H](C)CO)C(=O)c2cc(NC(=O)CCN3CCOCC3)ccc2O[C@@H]1CN(C)S(=O)(=O)c1ccc(F)cc1,i,i,i,i,i,i
O=C(CCN1CCCCC1)N[C@H]1CC[C@H](CCNC(=O)c2cc(Cl)cc(Cl)c2)O[C@H]1CO,i,i,i,i,i,i
COc1ccc(S(=O)(=O)N(C)C[C@H]2Oc3c(NS(=O)(=O)c4ccc(Cl)cc4)cccc3C(=O)N([C@H](C)CO)C[C@H]2C)cc1,nt,i,nt,i,i,nt
Cc1noc(C)c1S(=O)(=O)Nc1cccc2c1O[C@H](CN(C)C(=O)Nc1ccc3c(c1)OCO3)[C@H](C)CN([C@@H](C)CO)C2=O,i,i,i,i,i,i
